Here are results for 2 compounds from ChEMBL document CHEMBL4138316, “Optimization of Isothiazolo[4,3- b]pyridine-Based Inhibitors of Cyclin G Associated Kinase (GAK) with Broad-Spectrum Antiviral Activity” (J Med Chem, 2018).

Molecules are shown by their SMILES. Converted amounts (≈) assume the structure as drawn.

Data set [1] is described as follows: Aqueous solubility in PBS buffer at pH 7.4 at 100 uM after 1 hr by LC-MS/MS analysis. The conditions noted are these: pH 7.4, 1 h. Format: physicochemical.
Data set [2] can be described thus: Apparent permeability cross basolateral to apical side in MDCK-MDR1 cells at 5 uM after 90 mins by LC-MS/MS analysis. The following applies: dog, mdck-mdr1, 1.5 h. Format: ADME, cell-based, Canis lupus familiaris.
Data set [3] is described as follows: Apparent permeability cross apical to basolateral side in MDCK-MDR1 cells at 5 uM after 90 mins by LC-MS/MS analysis. In kind it is ADME, cell-based, Canis lupus familiaris. The following applies: dog, mdck-mdr1, 1.5 h.

Turning to `CC(=O)N1CCN(c2ccc(OCC3COC(Cn4ccnc4)(c4ccc(Cl)cc4Cl)O3)cc2)CC1` (stereo not drawn) [KETOCONAZOLE], the solubility in data set [1] was 32 µM (≈ 17 µg/mL).
As for `C=C[C@H]1C[N@@]2CC[C@H]1C[C@@H]2[C@@H](O)c1ccnc2ccc(OC)cc12` [QUINIDINE], the Papp is recorded as 41.99 ×10⁻⁶ cm/s in data set [2] and 13.03 ×10⁻⁶ cm/s in data set [3].
